# In patent publication EP0979827A1, “Peptides having tachykinin antagonist activity, a process for preparation thereof and pharmaceutical compositions comprising the same” (Boehringer Ingelheim Pharma KG, priority 1992, dated 1994):
# Amino acid sequences for entries named in this document (tags omitted).
# UniProt P25103, whole entry: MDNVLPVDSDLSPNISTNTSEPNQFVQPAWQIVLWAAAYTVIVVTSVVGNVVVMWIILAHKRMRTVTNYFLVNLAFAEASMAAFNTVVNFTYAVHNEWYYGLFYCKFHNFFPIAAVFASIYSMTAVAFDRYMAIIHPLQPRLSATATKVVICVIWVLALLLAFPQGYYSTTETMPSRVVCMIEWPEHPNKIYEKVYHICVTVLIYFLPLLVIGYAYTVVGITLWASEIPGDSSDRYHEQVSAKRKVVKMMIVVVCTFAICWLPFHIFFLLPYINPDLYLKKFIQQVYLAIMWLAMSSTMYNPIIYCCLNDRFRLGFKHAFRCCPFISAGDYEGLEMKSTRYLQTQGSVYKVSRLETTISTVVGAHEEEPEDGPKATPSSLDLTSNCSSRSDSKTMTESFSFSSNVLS
# Molecular target: NK1-Rezeptor (Substanz P-Rezeptor) (Homo sapiens, UniProt P25103)
# Assay: Receptor affinity for the NK1 receptor: displacement of 125I-labelled substance P on IM-9 cells
# Settings: read-out: IC50-Werte; humane Lymphoblastoma-Zellen (IM-9) mit klonierten NK1-Rezeptoren; Verdrängung von 125J-markierter Substanz P; tested form: free base
# Description: Die Rezeptoraffinität zum NK1-Rezeptor (Substanz P-Rezeptor) wurde an humanen Lymphoblastoma-Zellen (IM-9) mit klonierten NK1-Rezeptoren bestimmt, wobei die Verdrängung von ^125J-markierter Substanz P gemessen wird. Die so erhaltenen IC50-Werte betragen: Verb. A : 60 nM Verb. B : 21 nM Verb. C : 90 nM Verb. D : 45 nM [drawing 26]
compound,measurement,value
CN(Cc1ccccc1)C(=O)[C@H](CCc1ccccc1)NC(=O)[C@@H]1C[C@@H](O)CN1C(=O)c1c[nH]c2ccccc12,IC50,0.09 µM
